In this assay the test system is Escherichia coli. In words: Antimicrobial activity against Escherichia coli ATCC 25922 by CLSI M07-A9 method. It counts as functional. Put shortly:
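Laboratory strains tested following CLSI guidelines. Each compound was run in duplicate in at least two independent experiments, and the MIC was recorded.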

Data on one sequence can be found in ChEMBL document CHEMBL3864129, “Polybrominated Diphenyl Ethers: Structure Determination and Trends in Antibacterial Activity” (J Nat Prod, 2016).

One may read the MIC as the lowest concentration that inhibits growth of the organism. A higher MIC goes with a need for much substance.

In the case of GENTAMICIN, the MIC is 0.5 µg/mL.
